## Measured affinities in a library of Ab-14 light chain variants

Binding partner: SARS-CoV-2 spike HR2 peptide, sequence PDVDLGDISGINAS.

Ab-14 is the parent antibody, in scFv form: VH, then the linker GGGGSGGGGSGGGGS, then VL. The heavy chain is unchanged in all variants.
VH: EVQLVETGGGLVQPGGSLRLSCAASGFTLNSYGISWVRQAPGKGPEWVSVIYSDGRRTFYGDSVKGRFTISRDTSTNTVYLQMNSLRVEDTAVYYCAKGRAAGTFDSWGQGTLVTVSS
VL: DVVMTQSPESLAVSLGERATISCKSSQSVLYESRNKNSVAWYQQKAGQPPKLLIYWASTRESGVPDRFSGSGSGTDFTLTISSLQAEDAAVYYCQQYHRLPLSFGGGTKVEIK

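The parent was found by panning a naive human phage display library on the peptide. This is the validation round: designs drawn from the data on random variants, tested in the same kind of assay. Several design methods are mixed in this list. Affinity was read by AlphaSeq, a pooled yeast mating assay with surface-displayed partners. The frequency of each diploid, read from paired DNA barcodes, reflects how well the two displayed proteins bind. The ratio of observed to expected reads was calibrated, replicate by replicate, on BCL2-family standards whose Kd was known from biolayer interferometry. There are six technical replicates.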

The parent's light chain CDRs are KSSQSVLYESRNKNSVA, WASTRES, QQYHRLPLS; each variant's own CDRs replace them letter for letter. The Kd shown is the geometric mean over detected replicates; a lower Kd is a better binder. "nd" marks a missing value. The strain was present, yet no cells mated with the target were sequenced in any replicate, which points to weak or no binding.

CDR-L1,CDR-L2,CDR-L3,Kd (apparent),detected,empty controls
KSSPSVLHESRRKNSVA,WASTRES,QQYHRLPLS,55 nM,2 of 6,1 of 18
KLMQSGLYESRNKNSVA,NASTRES,QQYHRLPLS,3.3 nM,6 of 6,1 of 18
KLSGSELYESRNKNSVA,NASTRES,QQYHRLPLS,690 pM,6 of 6,1 of 18
HLSWVTLYESRNKNSVA,NASTRES,QQYHRLPLS,540 pM,6 of 6,0 of 18
KIELDLTRYNNGYSAIA,NETQKAN,QQYSRLPLV,3.2 nM,6 of 6,0 of 18
NLQNGGSELSVWSRNIA,DANIRES,QQYFRLPLL,1.2 nM,6 of 6,1 of 18
FMEMDFQENSGRGNSIA,SEEVKTR,QHYGRLPLS,nd,0 of 6,1 of 18
KVSQSHLYESRNMNSVA,NASTREM,QQYHRLPLY,3.2 nM,6 of 6,1 of 18
KQSDSVLYDSTNKNSVA,GASTRNS,QQYHRLPLS,1.7 nM,6 of 6,1 of 18
KLEMSELYESRNKNSVA,NASQRES,QQYHRLPLS,1.3 nM,6 of 6,0 of 18
KSSQSVLYESRNKNSVA,AASTRES,QQYNRLPLS,2.8 nM,6 of 6,1 of 18
KLSQSVLYESRNKNNVA,EASTRES,QAYHRLPLS,830 pM,6 of 6,3 of 18
KLDMSDLMESRNWNAVA,SASTREI,QQYHRLPLS,33 nM,3 of 6,0 of 18
MISQMYNMGQFAINSVA,QASERNE,QQYDRLPLI,22 nM,6 of 6,2 of 18
KLFQSYEYESRWKNSVA,NASQREC,QQYHRLPLS,28 nM,6 of 6,0 of 18
KLSQSELYEDRNKNSVA,NASQRMS,QQYHRLPLS,480 pM,6 of 6,1 of 18
KSSQSGLVESRNPNSVA,WASTRES,QQYHRLPLS,74 nM,3 of 6,1 of 18
KLSQWYWYESRNKNSVA,MASTREV,QQYWRLPLS,nd,0 of 6,0 of 18
MISNVMNTLTRQGNNVA,DLTEREE,QQYFRLPLS,2.4 nM,6 of 6,1 of 18
MFDQQLMTEWDKNNSVA,EENHLYN,QQYAQLPLI,69 nM,6 of 6,1 of 18
KRSQSVLDESRNKNSVA,WASTRES,QQYHRLPLS,19 nM,3 of 6,0 of 18
KLSQSVLYESRNKNSVA,DASTRCD,QQYHRLPLS,520 pM,6 of 6,4 of 18
KSSQSVLYESRNKNSVA,WASTRES,QQGHRLPLR,nd,0 of 6,1 of 18
TMPQVWMYESRNKNNVA,EMSTRED,QQYFRLPLS,3.4 nM,6 of 6,0 of 18
KSGQSVLYESRNKNSVA,WASTRES,QQYHRLPLS,760 nM,3 of 6,2 of 18
KFSGSHLYESRMENSVA,NASQRES,QQYHRLPLS,860 pM,6 of 6,1 of 18
KLSQSVQYESRNKNNVA,NASTRES,QQYHRLPLS,280 pM,6 of 6,1 of 18
MISMEEAPAIQQESSIA,HGGTRAE,QQYNRLPLC,2.1 nM,6 of 6,0 of 18
RLQQEHVGYPKKMNAIA,QGSQRCH,QSYDRLPLS,33 nM,6 of 6,1 of 18
KSSESVLYESRNKNSVA,WASTRSS,QQYHRLPLS,89 nM,5 of 6,0 of 18
KSSQSVLWESRNKNSVA,RASTREM,QVYARLPLS,nd,0 of 6,1 of 18

Further variants, results first:

Kd (apparent),detected,empty controls,CDR-L1,CDR-L2,CDR-L3
4.7 nM,6 of 6,1 of 18,KSSQSWLYESRNKNPVA,AASTRED,QQYVRLPLS
140 nM,2 of 6,1 of 18,KRSQSVLYESRNKNSVA,WASTLES,QQYHRLPLS
630 pM,6 of 6,3 of 18,YLSQSVLYESRNKNSVA,NASTREM,QQYHRLPLM
1.0 nM,6 of 6,0 of 18,KLSQSTLYEQRNCNSVA,QASQRES,QQYHRLPLS
nd,0 of 6,0 of 18,KVSQSVLYENRNKNSVA,WASTRES,DQYHRLPLS
1.1 nM,6 of 6,0 of 18,KLSQSVLYESRNKNSVA,NASTRMQ,QQYHRLPLS
340 pM,6 of 6,0 of 18,CLSQSWLYESRNKNSVA,NASTRES,QQYHRLPLS
1.8 nM,6 of 6,0 of 18,KLPQKWLYESRNKNNVA,SASCREQ,QQYHRLPLS
1.6 nM,6 of 6,1 of 18,KVSQSHPYEERNDNNVA,NASYRES,QQYHRLPLS
8.0 nM,6 of 6,2 of 18,TISQMFLGESRNRNSVA,QASTREY,QSYDRLPLS
9.1 nM,6 of 6,1 of 18,MFSQLFMYGSRNVNSVA,QASTRES,QQYHRLPLI
17 nM,6 of 6,0 of 18,MISDLTMYGSRNKNSVA,DLSTRGS,QQYSRLPLS
130 nM,5 of 6,2 of 18,MIYGMDRELGRAANSIA,DNVTRYD,QQYERLPLS
2.1 nM,6 of 6,3 of 18,KLYQNVGTMSHNTQSIA,DMERRED,QQYHRLPLS
5.9 nM,6 of 6,0 of 18,QVSITNNQGHAMEHNIA,EGTYAEE,QQYARLPLQ
650 pM,6 of 6,4 of 18,KVQQSVLYQSRNKNSVA,NASTRES,QQYHRLPLS
71 nM,1 of 6,0 of 18,KFDFQWPELNYQDNSIA,GMTVSIE,QQYWRLPLT
67 nM,6 of 6,0 of 18,KVQLGLERGNQAYSAVA,GVTQKGD,QQYFQLPLG
5.7 nM,6 of 6,2 of 18,TISQMTSLFSQSINNVA,EVSTREE,QQYDRLPLA
36 nM,6 of 6,2 of 18,MISQMYNMGQFAINSVA,QASIRNS,QQYDRLPLI
nd,0 of 6,0 of 18,IVSQLMIWGMHVKNSIA,EAELRLN,QQYDRLPLY
430 pM,6 of 6,2 of 18,KSSQSWLYESRNKNNVA,GASFRES,QQYHRLPLS
7.4 nM,6 of 6,1 of 18,MISQLYNMGTFAINSVA,QASIRNA,QQYDRLPLA
130 nM,1 of 6,1 of 18,QLMGQGDHSIKHANSIA,NVDIVDM,QQYAHLPLS
30 nM,6 of 6,1 of 18,KLSQSVKMESFVKDNVA,ENSTREA,QDYHRLPLS
8.9 nM,6 of 6,1 of 18,SLVSKADYMDSERQNIA,NMDTRNT,QQYFHLPLT
4.1 nM,6 of 6,0 of 18,KSSNSVLYESRYYNSVA,EASTRES,QQYHRLPLS
1.9 nM,6 of 6,3 of 18,KISQSFLYESRNKNSVA,DANTRES,QQYHRLPLS
63 nM,5 of 6,0 of 18,QLMVFNLQAGSTQAAIA,DASHSTP,QQYARLPLM
64 nM,6 of 6,1 of 18,KLSATYRYESQNKNSIA,EMSTREK,QCYHRLPLS
1.7 nM,6 of 6,1 of 18,KQSQSVLQEWRNKNSVA,DASTRES,QQYHRLPLS
3.6 nM,6 of 6,1 of 18,KSSQSCMYESRNKNSVA,QASTRES,QQYHRLPLS

Excerpt, the final 9 entries:

CDR-L1	CDR-L2	CDR-L3	Kd (apparent)	detected	empty controls
QLMGQGDHSIKHANSIA	NVDIVDM	QQYAHLPLS	130 nM	1 of 6	1 of 18
KLSQSVKMESFVKDNVA	ENSTREA	QDYHRLPLS	30 nM	6 of 6	1 of 18
SLVSKADYMDSERQNIA	NMDTRNT	QQYFHLPLT	8.9 nM	6 of 6	1 of 18
KSSNSVLYESRYYNSVA	EASTRES	QQYHRLPLS	4.1 nM	6 of 6	0 of 18
KISQSFLYESRNKNSVA	DANTRES	QQYHRLPLS	1.9 nM	6 of 6	3 of 18
QLMVFNLQAGSTQAAIA	DASHSTP	QQYARLPLM	63 nM	5 of 6	0 of 18
KLSATYRYESQNKNSIA	EMSTREK	QCYHRLPLS	64 nM	6 of 6	1 of 18
KQSQSVLQEWRNKNSVA	DASTRES	QQYHRLPLS	1.7 nM	6 of 6	1 of 18
KSSQSCMYESRNKNSVA	QASTRES	QQYHRLPLS	3.6 nM	6 of 6	1 of 18

In the paper, a design with two or fewer of six values counts as a poor binder. Values of this round are not directly comparable with the first-round values of the same sequences. Nonspecific signal, from three strains lacking the peptide, appeared in 4% of pairings of all light chain designs, centred on 430 nM (5% of these signals below 38 nM); values are not corrected for it. The control count says in how many pairings with the empty strains this scFv gave a signal.

Data: MIT Lincoln Laboratory AlphaSeq set, Li et al. 2023, doi:10.1038/s41467-023-39022-2, as distributed in FLAb.